Laboratory results published in US20150065440A1 (Progen Pharmaceuticals Limited, priority 2007, published 2015).

Chains of the proteins cited; added tags and fusions are not shown.
UniProt P05230, whole entry, species assumed: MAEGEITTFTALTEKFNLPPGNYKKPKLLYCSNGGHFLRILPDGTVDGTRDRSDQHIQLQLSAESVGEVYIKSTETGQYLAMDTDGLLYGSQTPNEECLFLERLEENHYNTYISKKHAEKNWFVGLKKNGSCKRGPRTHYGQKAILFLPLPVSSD

Target: FGF-1 (Homo sapiens, UniProt P05230)
Assay: Growth factor binding assay (SPR solution affinity), FGF-1
Conditions: HBS-EP buffer, 25° C.
Experimental: Binding affinities of compounds for the growth factors FGF-1, FGF-2 and VEGF were measured using a surface plasmon resonance (SPR) based solution affinity assay.^9 Heparin-coated sensorchips used for this assay were prepared via immobilisation of biotinylated BSA-heparin on a streptavidin-coated sensorchip, or via aldehyde coupling using either adipic acid dihydrazide or 1,4-diaminobutane.^9 For each Kd measurement, solutions were prepared containing a fixed concentration of protein and varying concentrations of the ligand in buffer. Ligands binding to FGF-1 and VEGF were measured in HBS-EP buffer (10 mM HEPES, pH 7.4, 150 mM NaCl, 3.0 mM EDTA and 0.005% (v/v) polysorbate 20), while binding to FGF-2 was measured in HBS-EP buffer containing 0.3 M NaCl. Prior to injection, samples were maintained at 4° C. to maximise protein stability. For each assay mixture, 50-200 μL of solution was injected at 5-40 μL/min and the relative binding response measured. All surface binding experiments were performed at 25° C. The surface was regenerated by injection of 40 μL of 4M NaCl at 40 μL/min, followed by injection of 40 μL of buffer at 40 μL/min.
Sensorgram data were analysed using the BIAevaluation software (BIAcore) and Kd values determined as previously described.^9 Where Kd values were measured in duplicate, the values represent the average of the duplicate measurements.

CC(C)CCCC(C)C1CCC2C3CCC4CC(OC5OC(COS(=O)(=O)O)C(OC6OC(COS(=O)(=O)O)C(OC7OC(COS(=O)(=O)O)C(OC8OC(COS(=O)(=O)O)C(OS(=O)(=O)O)C(OS(=O)(=O)O)C8OS(=O)(=O)O)C(OS(=O)(=O)O)C7OS(=O)(=O)O)C(OS(=O)(=O)O)C6OS(=O)(=O)O)C(OS(=O)(=O)O)C5OS(=O)(=O)O)CCC4(C)C3CCC12C [Compound 65, 3β-Cholestanyl 2,3,4,6-tetra-O-sodium sulfonato-α-D-glucopyranosyl-(1→4)-2,3,6-tri-O-sodium sulfonato-α-D-glucopyranosyl-(1→4)-2,3,6-tri-O-sodium sulfonato-α-D-glucopyranosyl-(1→4)-2,3,6-tri-O-sodium sulfonato-β-D-glucopyranoside]
Kd: 8 ± 4 nM
